Apparent affinities of Ab-14 variants for a coronavirus HR2 peptide

Reference: Li et al. 2023, doi:10.1038/s41467-023-39022-2. File: FLAb, binding data.

Binding partner: SARS-CoV-2 spike HR2 peptide, sequence PDVDLGDISGINAS.

The variants keep the heavy chain, the linker and the frameworks of Ab-14 (scFv order VH, a 15-residue (Gly4Ser)3 linker, VL).
VH: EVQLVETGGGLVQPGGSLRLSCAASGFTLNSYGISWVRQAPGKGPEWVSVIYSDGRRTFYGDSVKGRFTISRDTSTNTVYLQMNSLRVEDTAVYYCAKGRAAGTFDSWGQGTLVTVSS
VL: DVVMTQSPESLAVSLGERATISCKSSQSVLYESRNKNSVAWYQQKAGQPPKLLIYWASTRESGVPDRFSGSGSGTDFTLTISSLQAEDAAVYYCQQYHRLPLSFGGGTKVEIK

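The parent was found by panning a naive human phage display library on the peptide. These sequences belong to a second round, designed from the earlier measurements on random variants of the parent. Group labels follow the data file (Ctrl: baseline library sampled from a position-specific scoring matrix, with some repeated check sequences; En: ensemble of fine-tuned language models; GP: Gaussian process model; HC: hill climbing; Gen: genetic algorithm; Gibbs: Gibbs sampling; a sequence that several methods proposed may carry one label only). The assay is AlphaSeq: two haploid yeast populations carry antibody and antigen on their surface. Mating (16 h, 30 °C) was followed by selection of diploids and sequencing of their barcodes. Read counts were normalised to the haploid input and turned into Kd by a linear fit to BCL2-family pairs of known affinity, for each replicate. The assay was run in six technical replicates.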

Variants are written as CDR1, CDR2 and CDR3 of the light chain (limits as in the source). Parent: KSSQSVLYESRNKNSVA, WASTRES, QQYHRLPLS.
Scale: log10 of Kd in nM, estimated from mating counts; low values are strong binders.
Where no diploid with the target was found in that replicate, the entry reads "nd": below detection, most likely a poor binder, though not proof of it.

| CDR-L1 | CDR-L2 | CDR-L3 | group | replicates, log10 nM |
|---|---|---|---|---|
| KSSISVLYESRNPNSVA | WASTRES | QQYHRLPLS | Ctrl | nd / nd / nd / nd / nd / nd |
| MIGQGLMGESRAKNSIA | HASLRFD | QHYHRLPLI | En_HC | nd / 3.57 / 1.26 / 1.54 / 3.80 / 2.22 |
| KSLQSVLYESRDKNSVA | HASTRCD | QQYHRLPLS | GP_HC | 0.11 / 0.92 / 0.12 / 0.25 / 0.09 / 0.63 |
| MISQLYNMGTFAINSVA | QASIRNM | QQYDRLPLA | En_Gen | 0.11 / -0.20 / -0.58 / -0.49 / -0.13 / -0.55 |
| KLSGEVMMLQRNDNSVA | DANTRES | QQYHRLPLS | GP_Gibbs | -0.11 / -0.09 / 0.13 / -0.28 / -0.49 / -0.15 |
| IVSQLMLWGLHASNSIA | EAQTRLN | QQYDRLPLF | En_Gen | 0.89 / 0.70 / 1.08 / 1.39 / 1.05 / 0.60 |
| MISQLFMYGSRNYASIA | QASTREK | QQYDRLPLI | En_HC | nd / nd / nd / nd / nd / nd |
| KLSQSWMGEERNKNSVA | QASTREQ | QQYHRLPLS | GP_Gibbs | 0.22 / 0.02 / 0.09 / -0.22 / 0.03 / 0.14 |
| KSLQGWLYESRNKNSVA | HASTREQ | QQYHRLPLS | GP_HC | 0.62 / 0.60 / 0.45 / 0.36 / 0.46 / 0.63 |
| KLEQSIPYESRNKNSVA | NASTRES | QQYHRLPLS | GP_HC | 0.12 / -0.12 / -0.27 / -0.16 / -0.10 / -0.03 |
| KCSQGELYPSTNKNSVA | WASTRES | TVPIRLPLS | Ctrl | nd / nd / nd / nd / nd / nd |
| MLMQVGGYEMNAHNSIA | DLRTREN | QQYHRLPLS | En_HC | 2.59 / 1.01 / 2.43 / 2.06 / 1.91 / nd |
| KLSQSVLYESRNPNSVA | NASQRES | QQYHRLPLS | GP_Gen | -0.02 / -0.20 / -0.07 / -0.43 / -0.33 / 0.00 |
| MISQLYNMGQFAINSVA | QASVRNA | QQYDRLPLT | En_Gen | 1.72 / 3.07 / 1.53 / 1.96 / 2.74 / 2.07 |
| HISPSFMVESKLKNSVA | QTETRVS | QQYDRLPLS | En_HC | 0.25 / 0.16 / 0.28 / -0.02 / -0.05 / 0.30 |
| KIIQSGPYESRNKNSVA | NASTRSP | QQYHRLPLS | GP_Gibbs | -0.25 / -0.34 / -0.31 / -0.59 / -0.40 / 0.00 |
| KQSQSELYESRNSNSVA | DASQRED | QDYHRLPLS | GP_Gibbs | 0.35 / 0.61 / 0.22 / 0.49 / 0.36 / 0.44 |
| MISQLFNMGTFAINSVA | QASIRNE | QQYDRLPLM | En_Gen | 1.14 / 0.90 / nd / 1.50 / 1.20 / 2.23 |
| KLLQSVLYESRNKNSVA | EASTRES | QQYHRLPLS | GP_Gen | 0.00 / 0.04 / 0.16 / -0.11 / -0.09 / 0.02 |
| KLQQSQLYESRNKNSVA | NASTREV | QQYHRLPLS | GP_Gen | -0.03 / -0.14 / -0.20 / -0.21 / 0.00 / -0.02 |
| RLTNEFFKEKEHKNSVA | HADQRCM | QQYFRLPLI | En_Gibbs | 1.06 / 0.77 / 0.72 / 0.90 / 0.81 / 1.09 |

Second part, the sequence after the result:

| replicates, log10 nM | CDR-L1 | CDR-L2 | CDR-L3 | group |
|---|---|---|---|---|
| nd / nd / nd / nd / nd / nd | KSSQSVLYEVRNHNSVA | WASTRES | QQYHRLPLS | Ctrl |
| 0.05 / -0.21 / -0.04 / 0.25 / 0.58 / 0.24 | KSSISYLYESMNKNSVA | HGSTRES | QQYHRLPLS | GP_HC |
| 1.44 / 1.41 / 1.25 / 1.34 / 3.23 / 1.98 | KSSQNVLGDSRNKNSVA | WASTRFS | QQYHRLPLS | Ctrl |
| -0.13 / -0.26 / 0.00 / -0.32 / -0.41 / 0.29 | KSSWSVLGESRNKNSVA | DASTRSS | QQYHRLPLS | GP_HC |
| nd / 1.63 / 1.94 / 1.63 / 3.45 / 1.15 | KSSQSTLYETRNKNSVA | WASTRES | QQYHRLPLS | Ctrl |
| 1.62 / 1.90 / 1.54 / 1.81 / 2.12 / 1.70 | NLKEWNVDNQTFYSNIA | EADIREL | QQYYRLPLQ | En_Gibbs |
| 0.68 / 0.32 / 0.71 / 0.66 / 0.76 / 0.65 | ILYDSVGTLSRNKNSVA | DNSTREP | QQYDRLPLS | En_HC |
| nd / nd / nd / nd / nd / nd | KSSQSDLYESRNKNSVA | WASTRES | QQYLRLFLS | Ctrl |
| 0.43 / 0.53 / 0.93 / 0.35 / 0.60 / 0.51 | KVLQSVWYEGRNKNSVA | HASTRED | QQYHRLPLS | GP_HC |
| 0.01 / 0.05 / 0.03 / -0.06 / -0.14 / 0.11 | ALGDVTRMESNKKNSIA | DMSTRED | QQYHRLPLS | En_HC |
| 0.97 / 0.19 / 1.02 / 1.55 / 0.49 / 0.73 | KSSQSVLYESQNNNSVA | EASTRES | QQYHGLPLS | Ctrl |
| -0.25 / -0.52 / -0.52 / -0.16 / -0.56 / -0.37 | KSSDSGLYESRMKNSVA | EASTRES | QQYHRLPLS | GP_HC |
| 0.70 / 0.49 / 0.70 / 0.24 / 0.60 / 0.45 | VLAMESYGKSRHESNIA | GANMLSQ | QQYARLPFA | En_Gibbs |
| nd / nd / 2.27 / 2.82 / nd / nd | KLSESVRMESFNKNSVA | ENSTREA | QDYHRLPLS | En_HC |
| 1.00 / 1.14 / 1.44 / 1.33 / 1.41 / 0.84 | SLELFSLSGDLPWNAVA | NEVVKLA | QQYFRLPLH | En_Gibbs |
| -0.16 / -0.27 / -0.18 / -0.43 / -0.25 / -0.38 | KLRQSTWYESRNQNSVA | GASTRES | QQYHRLPLS | GP_HC |
| 2.28 / 1.60 / 1.07 / 1.55 / 1.33 / 1.63 | KSSQSWLYESRNPNSVA | WASTRES | QQYHRLPLS | Ctrl |
| 0.31 / 0.11 / 0.22 / 0.32 / 0.33 / 0.53 | KISQLVNFEGKNKNSVA | QMSTRES | QQYDRLPLS | En_HC |
| 0.05 / 0.04 / -0.32 / -0.27 / -0.24 / -0.09 | KLSQSWEYESRNKNNVA | NASTRES | QQYHRLPLS | GP_Gen |
| nd / nd / nd / nd / nd / nd | TLSQMSGVESVKHNNVA | ENSTREE | QQYDRLPLA | En_Gen |
| 0.24 / -0.06 / -0.25 / -0.22 / -0.03 / -0.08 | HSSQSQDYESRNKNSVA | NASQRYQ | QQYHRLPLS | GP_Gibbs |

Picked from the list: the 5 lowest averages where every replicate gave a value.

CDR-L1,CDR-L2,CDR-L3,group,"replicates, log10 nM"
KSSDSGLYESRMKNSVA,EASTRES,QQYHRLPLS,GP_HC,-0.25 / -0.52 / -0.52 / -0.16 / -0.56 / -0.37
KIIQSGPYESRNKNSVA,NASTRSP,QQYHRLPLS,GP_Gibbs,-0.25 / -0.34 / -0.31 / -0.59 / -0.40 / 0.00
MISQLYNMGTFAINSVA,QASIRNM,QQYDRLPLA,En_Gen,0.11 / -0.20 / -0.58 / -0.49 / -0.13 / -0.55
KLRQSTWYESRNQNSVA,GASTRES,QQYHRLPLS,GP_HC,-0.16 / -0.27 / -0.18 / -0.43 / -0.25 / -0.38
KLSQSVLYESRNPNSVA,NASQRES,QQYHRLPLS,GP_Gen,-0.02 / -0.20 / -0.07 / -0.43 / -0.33 / 0.00

The authors averaged sequences with at least three values out of six and counted those with two or fewer as poor binders.
A sequence measured in both rounds can read differently, since the two assays cover different ranges.
The parent sequence was in this pool as ten entries: three were never detected, three once, and four in most replicates, with averages from 0.34 to 2.37.
Three control strains display no target. For all light chain designs, 4% of the pairings with them gave a signal, with a median of 2.64 and one signal in twenty below 1.59, so weak values seen in few replicates may be background.